The text below walks through data of PubChem BioAssay AID602405 (Broad Institute, 2012).

This is a selection; strong and weak results do not stand in their true shares. Active and inactive are the calls of the source. Rule as the data show it: active = inhibition above about 16% (passing the limit was not always enough); inconclusive = no clear call, values can overlap the other calls; inactive = below that.

In the test the test system is UDP-N-acetylbacillosamine N-acetyltransferase PglD (Campylobacter jejuni). In words: C. jejuni PglD acetyltransferase inhibitors, primary screen, biochemical, DTNB colorimetric, single point (AID 602405). The conditions noted are these: purified PglD enzyme, DTNB colorimetric CoA detection; at 12.5 µM; stronger effect = higher value.
In the case of `COc1ccccc1OP(C)(=O)Nc1ccc(C)c(C)c1` (stereo unspecified), the inhibition is inactive: -3.37%.
